Measurements taken from BindingDB's records for doi:10.1016/j.bmcl.2005.07.021 (Johnson & Johnson Pharmaceutical Research and Development, 2005).

Molecular target: Glycogen phosphorylase, muscle form (Oryctolagus cuniculus) (UniProt P00489)
Assay: Inhibitory concentration against glycogen phosphorylase of rabbit muscle

IC50: 420 nM
Structure (SMILES): O=C(NCc1cccs1)c1ccc(Nc2nc3ccccc3n(CCN3CCCCC3)c2=O)cc1 [4-[3-Oxo-4-(2-piperidin-1-yl-ethyl)-3,4-dihydro-quinoxalin-2-ylamino]-N-thiophen-2-ylmethyl-benzamide]
